# From patent US20140358576A1, “SYSTEM AND METHOD FOR SURVEILLANCE AND EVALUATION OF SAFETY RISKS ASSOCIATED WITH MEDICAL INTERVENTIONS” (Adverse Events, Inc., priority 2013, published 2014)
# Tests used:
# [1] = RxScore calculation, Example 2 (FAERS components with event reporter Importance Weighting, no FDA warning/DEA schedule); details: for ROR: Example 2 disproportionality measure component score, up to 20 points
# [2] = RxScore calculation, Example 1 (FAERS components plus FDA and DEA components)
substance,measurement,setting,value
sodium iodide i-131,ROR,[1],14.71
"coagulation factor viia, recombinant",RxScore,"[2]; Example 1, maximum of 100 total points, FAERS primary suspect case reports",81.61
same,Condition Seriousness,"[2]; Example 1 component score, up to 8.68 points",3.51
same,Adverse Event Seriousness,"[2]; Example 1 component score, up to 20.03 points",11.20
same,Outcome,"[2]; Example 1 component score, up to 25.65 points, comorbidity adjusted",18.17
same,ROR,"[2]; Example 1 disproportionality measure component score, up to 14.98 points",2.54
same,Literature,"[2]; combined scores from FDA MedGuides, FDA boxed warnings, and DEA schedules",12.5
icodextrin,RxScore,"[1]; Example 2, maximum of 100 total points, Importance Weighting applied",73.08
same,Adverse Event Seriousness,"[1]; Example 2 component score, up to 27 points",15.16
same,Outcome,"[1]; Example 2 component score, up to 35 points, comorbidity adjusted",22.03
same,ROR,[1],5.55
same,Report Priority,"[1]; Example 2 report type component score, up to 6 points",5.51
